Where “and” joins values, the source holds several entries; their conditions need not be identical. Identical values can stand only once. The list shows a part of the results, in another mix than the full data. Calls of active or inactive are those of the source.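 Rule for the calls: active = nuclear translocation activity above 50% at 5 µM, with a well cell count of 50 or more; inconclusive = wells under 50 cells across six images, flagged as toxic; inactive = the rest.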

The test can be described thus: modulators of beta-catenin nuclear translocation, primary screen, imaging, HeLa cells, immunofluorescence, high-content (AID 1665).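 Note: per-cell ratio of nuclear to cytoplasmic median beta-catenin stain intensity; plate controls were DMSO negative control for no effect and GSK-3 inhibitor IX positive control for full effect.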 The conditions noted are these: at 5 µM, hits give high values.
Consider `O=C(O)CNc1ccc([As](=O)(O)O)cc1`, for which the nuclear translocation activity is inactive: 0.3%.
With `O=[N+]([O-])c1cccc(NC2=NCC(CBr)S2)c1` (stereo unspecified) the figure was inactive: 1.1%.
With `O=[N+]([O-])c1ncn(CCn2ncnc2[N+](=O)[O-])n1` the figure was inactive: -0.4%; with `CC(C)(C)C(=O)NC(Sc1ccncn1)C(Cl)(Cl)Cl` (stereo unspecified), inactive: 1.1%; with `CP(=O)(OC12CC3CC(CC(C3)C1)C2)OC12CC3CC(CC(C3)C1)C2`, inactive: -2.9%.
In the case of `O=C(Nc1cc([As](=O)(O)O)ccc1O)c1ccccc1` it was inactive: -1.6%; in that of `CCOC(=O)c1ccc(NP(C)(=O)Oc2ccc(Cl)cc2)cc1` (stereo unspecified), inactive: -0.6%; in that of `CC1CCN(C(=O)Oc2c(Cl)cc(Cl)c3cccnc23)CC1`, inactive: 0.2%.
For `CN(C)C(=O)OCCc1n(C)cc[n+]1C`, the nuclear translocation activity was inactive: -1.8%.
In the case of `CC(C)=N/N=C(\N)N[N+](=O)[O-]`, the nuclear translocation activity was inactive: -0.7%.
In the case of `CN(C)C(=O)c1c([N+](=O)[O-])cc([N+](=O)[O-])cc1[N+](=O)[O-]`, the nuclear translocation activity is inactive: -0.2%.
For the molecule `CP(=O)(Nc1ccc(Cl)cc1)Oc1ccc(F)cc1` (stereo unspecified), the nuclear translocation activity is inactive: -0.4%.
In the case of `CCN(/C(=N/P(=O)(N1CCOCC1)N1CCOCC1)N1CCOCC1)c1ccc(OC)cc1` it was inactive: -5.9%; in that of `C[N+]1=C2C=CC=CC=C2SC12C([N+](=O)[O-])=CC([N+](=O)[O-])=C[C-]2[N+](=O)[O-]` (stereo unspecified), inactive: 0.1%; in that of `Nc1ccc([As](=O)(O)c2ccc(N)cc2)cc1`, inactive: -2.9%.
Take `CC(C)(C)c1ccc(OP(C)(=O)O)cc1`: the nuclear translocation activity was inactive: -4.7%.
On to `COc1ccccc1OP(C)(=O)Nc1ccccc1Br` (stereo unspecified), for which the nuclear translocation activity was inactive: 0.2%.
In the case of `O=[N+]([O-])c1cc([N+](=O)[O-])c(CCNc2ccccc2)c([N+](=O)[O-])c1` it was inactive: 5.9%.
On to `CCc1nc2c(n1)c1c(non1O)c1c2no[n+]1[O-]`, for which the nuclear translocation activity is inactive: 6.7%.
For `CCc1ccc(OP(C)(=O)Nc2cccnc2)cc1` (stereo unspecified), the nuclear translocation activity was inactive: -4%.
With `CP(=O)(Oc1ccccc1)N1CCOC1=O` (stereo unspecified) the figure was inactive: 0.1%; with `Cc1ccc(NP(=O)(Oc2ccccc2)Oc2ccccc2)nc1`, inactive: -1.7%; with `O=C(OCCCN1CCCC1)C(O)(c1ccccc1)C1CCCCC1` (stereo unspecified), inactive: -0.4%.
For the molecule `COc1ccccc1OP(C)(=O)Nc1c(C)n(C)n(-c2ccccc2)c1=O` (stereo unspecified), the nuclear translocation activity was inactive: -3.1%.
With `O=[N+]([O-])c1cccc2n[nH]nc12` the figure was inactive: -0.8%.
With `COc1ccc(C2=NCC(CBr)S2)cc1` (stereo unspecified) the figure was inactive: -3.5%; with `CCN(CC)CC(O)COC(=O)C(O)(c1ccccc1)C1CCCCC1` (stereo unspecified), inactive: -0.3%; with `CCc1ccc(OP(C)(=O)O)cc1`, inactive: 0%.
With `COc1ccccc1OP(C)(=O)Nc1ccc(C)cc1C` (stereo unspecified), the nuclear translocation activity is inactive: -2%.
In the case of `CP(=O)(Nc1ccccn1)Oc1ccccc1` (stereo unspecified) it was inactive: -0.1%.
Take `Cc1c2non([O-])c-2c(C)[n+](=O)[n+]1[O-]`: the nuclear translocation activity is inactive: -0.2%.
With `O=C(NC(Sc1ccncn1)C(Cl)(Cl)Cl)c1ccccc1` (stereo unspecified) the figure was inactive: -2.1%.
In the case of `O=[N+]([O-])c1cc([N+](=O)[O-])c(Nc2ccccn2)c([N+](=O)[O-])c1` it was inactive: 3.3%; in that of `Nc1cc(N)c2nonc2c1[N+](=O)[O-]`, inactive: -0.8%; in that of `Cc1c(NP(C)(=O)Oc2ccc(C(C)C)cc2)c(=O)n(-c2ccccc2)n1C` (stereo unspecified), inactive: 0.3%.
In the case of `CN(C)CCOC(=O)C(O)(c1ccccc1)C1CCCC1` (stereo unspecified) it was inactive: -4%; in that of `Clc1ccc(Cl)c(NC2=NCC(CBr)S2)c1` (stereo unspecified), inactive: 0%.
Turning to `CN1CCCC(OC(=O)C(c2ccccc2)c2ccccc2)C1` (stereo unspecified), the nuclear translocation activity is inactive: -1.2%.
In the case of `Cc1ccc(OP(=O)(Nc2nccs2)Oc2ccc(C)cc2)cc1` it was inactive: -1%; in that of `COc1ccccc1OP(=O)(Nc1ccc(C)cn1)Oc1ccccc1OC`, inactive: -1.5%; in that of `Cc1ccc(N/C(=N/P(=O)(N2CCOCC2)N2CCOCC2)N2CCOCC2)cc1`, inactive: -5.1%.
With `COc1ccccc1OP(C)(=O)Nc1ccc(Br)cc1` (stereo unspecified) the figure was inactive: -0.8%; with `NC(=O)c1cc([N+](=O)[O-])cc([N+](=O)[O-])c1N`, inactive: 1.9%; with `CP(=O)(OCCOc1ccccc1)OCCOc1ccccc1`, inactive: -0.3%.
In the case of `CP(=O)(Nc1ccc(Cl)cc1Cl)Oc1ccccc1` (stereo unspecified) it was inactive: -2.3%.
As to `Nc1cccc2ccc([As](=O)(O)O)cc12`, the nuclear translocation activity was inactive: -3.9%.
As to `CCN(N=Nc1nonc1N)c1nonc1N`, the nuclear translocation activity was inactive: -1.8%.
As for `Cc1nc2ccc3ccccc3c2o1.O=[N+]([O-])c1cc([N+](=O)[O-])c(O)c([N+](=O)[O-])c1`, the nuclear translocation activity was inactive: -5.2%.
On to `COc1ccc(OP(C)(=O)Nc2ccccc2Br)cc1` (stereo unspecified), for which the nuclear translocation activity was inactive: -0.7%.
In the case of `Cc1ccc(NP(=O)(Oc2ccccc2F)Oc2ccccc2F)nc1` it was inactive: 0.3%; in that of `COc1ccccc1OP(C)(=O)Nc1ccc(C)c(C)c1` (stereo unspecified), inactive: -1.4%.
With `CCOP(=O)(Nc1ccccc1)OCC` the figure was inactive: -4.2% and inactive: -2.6%; with `Cc1cc(SC(NC(=O)c2ccc(F)cc2)C(Cl)(Cl)Cl)ncn1` (stereo unspecified), inactive: -2.7%; with `Cc1cc(C)cc(OP(C)(=O)Nc2cccc(C(F)(F)F)c2)c1` (stereo unspecified), inactive: 1.8%.
In the case of `O=P(Nc1nc2ccc(Cl)cc2s1)(c1ccccc1)c1ccccc1` it was inactive: -0.5%.
`O=C(O)c1ccccc1[As](=O)(O)O`: the nuclear translocation activity was inactive: -0.3%.
As for `CC(=O)Nc1ccc([As](=O)(O)O)cc1`, the nuclear translocation activity is inactive: -4%.
In the case of `CN(C)C(=O)Oc1noc2ccccc12` it was inactive: -0.3%; in that of `O=c1c2cc([N+](=O)[O-])ccc2[nH]c2c([N+](=O)[O-])cc([N+](=O)[O-])cc12`, inactive: 1.3%.
Consider `CCCCCOc1ccc(NP(C)(=O)Oc2ccc(Cl)cc2Cl)cc1` (stereo unspecified), for which the nuclear translocation activity was inactive: 0.8%.
For the molecule `Cc1ccccc1OP(=O)(Nc1ccccn1)Oc1ccccc1C`, the nuclear translocation activity is inactive: -1.1%.
In the case of `CP(=O)(Nc1ccccc1)Oc1ccc(F)cc1` (stereo unspecified) it was inactive: -2.5%.
Take `CCN(CC)CCCOC(=O)C(O)(c1ccccc1)C1CCCCC1` (stereo unspecified): the nuclear translocation activity is inactive: 1.2%.
With `Cc1ccc(OP(=O)(Nc2ccccn2)Oc2ccc(C)cc2)cc1` the figure was inactive: -1.2%.
As for `CC(=O)NC(SC(=S)N(CC(C)C)CC(C)C)C(Cl)(Cl)Cl` (stereo unspecified), the nuclear translocation activity was inactive: 1.8%.
In the case of `COC(=O)c1cc2c(s1)N=C(c1ccccc1)N(C)P2(=O)N1CCOCC1` (stereo unspecified) it was inactive: -1%.

Source of the values: PubChem BioAssay AID1665 (Sanford-Burnham Center for Chemical Genomics, 2009).
